Assay results reported in patent publication US7030242B2, “Selective inhibition of aggrecanase in osteoarthritis treatment” (Pfizer Inc, priority 1999, dated 2006).

target: T1, Human recombinant collagenase-1 (Homo sapiens, UniProt P03956); assay: Inhibition of human collagenase-1 (recombinant collagenase-1 assay); format: biochemical; conditions: Table 2, read-out: MMP-1 (IC50 class)
T1 sequence (P03956 100-469): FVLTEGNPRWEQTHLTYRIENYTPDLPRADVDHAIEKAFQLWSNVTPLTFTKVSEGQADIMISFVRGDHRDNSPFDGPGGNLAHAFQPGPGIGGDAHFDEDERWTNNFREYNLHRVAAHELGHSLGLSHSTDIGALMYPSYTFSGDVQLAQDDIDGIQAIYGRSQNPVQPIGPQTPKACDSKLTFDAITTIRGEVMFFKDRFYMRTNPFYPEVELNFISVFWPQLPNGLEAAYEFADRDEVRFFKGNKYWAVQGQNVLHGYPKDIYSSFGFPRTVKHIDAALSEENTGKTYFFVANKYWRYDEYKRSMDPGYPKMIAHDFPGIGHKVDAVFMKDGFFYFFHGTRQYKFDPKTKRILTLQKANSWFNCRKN

IC50 [nM]	Structure (SMILES)
200 to 1000	C[C@@]1(O)CCCN(S(=O)(=O)c2ccc(OCc3ccccc3Cl)cc2)[C@H]1C(=O)NO [(2R,3R) 1-[4-(2-chloro-benzyloxy)-benzenesulfonyl]-3-hydroxy-3-methyl-piperidine-2-carboxylic acidhydroxyamide]
200 to 1000	Cc1ccc(F)cc1COc1ccc(S(=O)(=O)N2CCC[C@@](C)(O)[C@@H]2C(=O)NO)cc1 [(2R,3R) 1-[4-(2-methyl-5-fluorobenzyloxy)-benzenesulfonyl]-3-hydroxy-3-methyl-piperidine-2-carboxylic acidhydroxyamide]
200 to 1000	Cc1cc(F)ccc1COc1ccc(S(=O)(=O)N2CCC[C@@](C)(O)[C@@H]2C(=O)NO)cc1 [(2R,3R) 1-[4-(4-fluoro-2-methyl-benzyloxy)-benzenesulfonyl]-3-hydroxy-3-methyl-piperidine-2-carboxylic acidhydroxyamide]
